# Experimental data from paper PMC8914349 (Molecular cancer therapeutics, 2020).
# Experiment: Single administration plasma pharmacokinetics in tumor-bearing mice
# Format: in vivo
# Settings: mouse plasma
# In short: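 Nude mice bearing M1 or M5 s.c. xenografts received a single oral dose of trametinib 5.0 mg/Kg, sapanisertib 2.0 mg/Kg, or both. Plasma and tumor were taken from two mice per group per timepoint over 2–48 h. Validated LC-MS/MS was used; sapanisertib was read by MRM m/z 310.2→268.1, calibrated 1–1000 ng/mL. Noncompartmental analysis for destructive sampling gave Cmax, T1/2 and AUC to last timepoint, with AUC error by Bailer's method.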
compound,measurement,value
CC(=O)Nc1cccc(-n2c(=O)n(C3CC3)c(=O)c3c(Nc4ccc(I)cc4F)n(C)c(=O)c(C)c32)c1 [trametinib],change in trametinib plasma AUC in the presence of sapanisertib relative to trametinib alone,significant increase
